Experimental data from ChEMBL document CHEMBL4649982, “Selective targeting of Bromodomains of the Bromodomain-PHD Fingers family impairs osteoclast differentiation” (ACS Chem Biol, 2017).

Target: T1, Bromodomain-containing protein 1 (Homo sapiens) (UniProt O95696)
T1 sequence (whole entry): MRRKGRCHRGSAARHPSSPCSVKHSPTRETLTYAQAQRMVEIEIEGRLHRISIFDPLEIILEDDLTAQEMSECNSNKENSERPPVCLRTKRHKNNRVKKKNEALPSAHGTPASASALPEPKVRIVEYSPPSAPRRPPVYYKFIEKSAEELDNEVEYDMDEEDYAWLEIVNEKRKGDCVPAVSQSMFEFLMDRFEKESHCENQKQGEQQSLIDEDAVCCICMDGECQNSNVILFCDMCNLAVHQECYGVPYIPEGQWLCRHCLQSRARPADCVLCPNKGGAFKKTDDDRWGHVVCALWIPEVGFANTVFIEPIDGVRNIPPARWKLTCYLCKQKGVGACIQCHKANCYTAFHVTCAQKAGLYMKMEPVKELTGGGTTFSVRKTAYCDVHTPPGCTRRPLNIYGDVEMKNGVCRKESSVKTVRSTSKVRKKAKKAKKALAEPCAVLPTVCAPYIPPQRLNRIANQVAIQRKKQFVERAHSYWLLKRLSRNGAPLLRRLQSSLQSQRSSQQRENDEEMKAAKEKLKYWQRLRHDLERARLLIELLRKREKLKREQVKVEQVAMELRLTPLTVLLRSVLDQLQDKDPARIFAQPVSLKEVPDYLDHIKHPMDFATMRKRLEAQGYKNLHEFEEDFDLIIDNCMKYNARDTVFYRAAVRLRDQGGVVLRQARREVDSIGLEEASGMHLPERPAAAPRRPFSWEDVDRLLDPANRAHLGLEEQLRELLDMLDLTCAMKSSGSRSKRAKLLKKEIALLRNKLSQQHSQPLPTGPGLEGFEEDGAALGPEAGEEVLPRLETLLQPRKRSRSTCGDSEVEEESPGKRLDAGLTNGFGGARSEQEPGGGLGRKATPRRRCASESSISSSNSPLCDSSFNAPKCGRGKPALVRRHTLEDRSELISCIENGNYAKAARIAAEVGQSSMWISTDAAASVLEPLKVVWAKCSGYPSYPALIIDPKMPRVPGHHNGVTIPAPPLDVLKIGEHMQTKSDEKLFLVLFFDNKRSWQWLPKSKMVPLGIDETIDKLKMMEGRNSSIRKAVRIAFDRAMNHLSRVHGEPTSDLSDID
Settings: Compound concentration 10.0 uM, Protein concentration 2.0 uM

SMILES: COc1cc2c(cc1NS(=O)(=O)c1ccc(Br)cc1C)n(C)c(=O)n2C
- ΔTm: 3.27 °C
